We go through 1 compound from ChEMBL document CHEMBL2413008, “Carbonic anhydrase inhibitors: Synthesis and inhibition of the cytosolic mammalian carbonic anhydrase isoforms I, II and VII with benzene sulfonamides incorporating 4,5,6,7-tetrachlorophthalimide moiety” (Bioorg Med Chem, 2013).

Chains of the proteins cited; added tags and fusions are not shown. Lines headed by an entry give the natural chain unless they say otherwise; changes in a name come on top.
UniProt P00915: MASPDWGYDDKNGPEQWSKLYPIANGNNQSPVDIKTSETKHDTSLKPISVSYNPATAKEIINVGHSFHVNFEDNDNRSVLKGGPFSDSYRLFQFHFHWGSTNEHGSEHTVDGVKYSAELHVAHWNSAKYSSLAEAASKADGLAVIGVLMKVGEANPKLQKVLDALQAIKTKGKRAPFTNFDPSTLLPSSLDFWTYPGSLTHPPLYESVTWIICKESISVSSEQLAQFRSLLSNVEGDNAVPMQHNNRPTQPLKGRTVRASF

The target in the assay is Carbonic anhydrase 1 (Homo sapiens, UniProt P00915).

By pKi is commonly meant the negative decadic logarithm of the Ki, by convention in mol/L. Lower therefore signals a high Ki.

pKi: −log10 of the molar value.

The compound `NS(=O)(=O)c1ccc(N2C(=O)c3c(Cl)c(Cl)c(Cl)c(Cl)c3C2=O)c(Cl)c1` had a pKi of 6.82.
